Results reported in PubChem BioAssay (NCATS).
The entries are a selection whose mix differs from that of the whole data set. Results filed as inconclusive are left out. Active and inactive are the calls of the source. Unless noted, calls follow the shape of the dose curve; as a rule, active = well fitted curve in the direction sought with a large enough effect; inconclusive = small, poorly fitted or top-dose-only effect, or another doubt; inactive = no such curve, though single readings can be large; an effect the other way counts as inactive or inconclusive.

By UniProt entry, the sequences of proteins in these tests, tags left out. Where a name states a change or a piece, a line headed by the entry shows the natural chain unless it says otherwise.
UniProt Q07343: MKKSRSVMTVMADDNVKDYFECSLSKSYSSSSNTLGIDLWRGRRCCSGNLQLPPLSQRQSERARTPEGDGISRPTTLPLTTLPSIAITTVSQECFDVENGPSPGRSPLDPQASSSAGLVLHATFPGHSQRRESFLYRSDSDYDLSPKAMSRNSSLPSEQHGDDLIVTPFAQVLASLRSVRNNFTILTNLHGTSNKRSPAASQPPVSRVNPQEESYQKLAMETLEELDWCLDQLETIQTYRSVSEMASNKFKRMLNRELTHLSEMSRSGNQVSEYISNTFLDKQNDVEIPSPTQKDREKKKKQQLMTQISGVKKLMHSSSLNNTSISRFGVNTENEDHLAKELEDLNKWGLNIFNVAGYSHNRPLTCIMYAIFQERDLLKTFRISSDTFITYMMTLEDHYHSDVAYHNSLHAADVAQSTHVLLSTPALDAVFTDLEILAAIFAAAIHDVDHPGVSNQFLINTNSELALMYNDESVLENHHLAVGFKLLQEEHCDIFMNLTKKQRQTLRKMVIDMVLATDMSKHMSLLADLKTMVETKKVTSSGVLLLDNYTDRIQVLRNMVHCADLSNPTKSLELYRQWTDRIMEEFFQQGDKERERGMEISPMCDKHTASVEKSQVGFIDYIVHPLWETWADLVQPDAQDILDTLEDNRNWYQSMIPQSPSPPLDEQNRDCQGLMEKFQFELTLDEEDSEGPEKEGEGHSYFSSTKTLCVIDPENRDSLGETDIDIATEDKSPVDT

What was measured:
[1] = NFAT Signaling Pathway (AID 444; active = well fitted curve in either direction with a large enough effect, not every such curve was filed as active;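 also: carbachol stimulus at about its EC50 of 1 µM final; % is scaled to controls: 0 for no effect and ±100 for the full control effect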); conditions: Jurkat NFAT-bla M1, carbachol, beta-lactamase ratio, 5 h; at 7.69 µM (top of the series) unless noted
[2] = Cell Viability - N2a (AID 540); conditions: N2a mouse neuroblastoma cell viability; at 92.2 µM (top of the series);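 also: cells exposed to compound for 40 h at 37 °C; plate controls were DMSO alone for no effect and tamoxifen control for full effect; nearly all actives have a fitted effect of over 45% in size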
In short: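 Cytotoxicity was scored as loss of cellular ATP in N2a cells, a mouse neuroblastoma line. Compounds are applied in a qHTS concentration series for 40 hr at 37 °C.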

[3] = Cell Viability - NIH 3T3 (AID 541); conditions: NIH 3T3 cell viability, qHTS; at 92.2 µM (top of the series);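 also: cells exposed to compound for 40 hours; plate controls were DMSO alone for no effect and tamoxifen positive control for full effect; nearly all actives have a fitted effect of over 25% in size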
In short: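 Cells seeded at 1000/well, rested 5 hr at 37 °C, then dosed and incubated 40 hr at 37 °C. CellTiter-Glo added, 20 min room temperature, luminescence read. AC50 by Hill fit.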

[4] = Cell Viability - HUV-EC-C (AID 542);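 also: cells exposed to compound for 40 hours; % is scaled to controls: 0 for no effect and ±100 for the full control effect; nearly all actives have a fitted effect of over 35% in size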
In short: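 Cells were seeded at 1000 per well and incubated 5 hr at 37 °C before compound addition. After 40 hr at 37 °C, CellTiter-Glo reagent was added for 20 min and luminescence read. AC50 values came from Hill-equation modelling.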

[5] = Cell Viability - H-4-II-E (AID 543);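 also: cells exposed to compound for 40 hours; % is scaled to controls: 0 for no effect and ±100 for the full control effect; nearly all actives have a fitted effect of over 35% in size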
In short: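 Cells seeded at 1500 per well and rested 5 hr; compounds added; 40 hr incubation at 37 °C; CellTiter-Glo added, 20 min at room temperature; luminescence read. Hill-equation fits gave AC50.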

[6] = Cell Viability - SH-SY5Y (AID 544);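 also: cells exposed to compound for 40 hours; nearly all actives have a fitted effect of over 55% in size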
In short: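 Cells were plated at 1500 per well and allowed 5 hr at 37 °C. Compounds were added across a concentration range and incubated 40 hr at 37 °C. CellTiter-Glo was added for 20 min at room temperature before luminescence reading.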

[7] = Cell Viability - Renal Proximal Tubule (AID 545); conditions: renal proximal tubule cells viability, primary cells of rat origin; at 91.7 µM (top of the series);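 also: cells exposed to compound for 40 hours; nearly all actives have a fitted effect of over 40% in size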
In short: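 Cytotoxicity is scored as a concentration-dependent drop in cellular ATP in primary rat renal proximal tubule cells exposed for 40 hr. AC50 derives from Hill modelling.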

[8] = Cell Viability - Mesenchymal (AID 546); conditions: mesenchymal cells viability, qHTS; at 91.7 µM (top of the series);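 also: cells exposed to compound for 40 hours before reading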
In short: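 CellTiter-Glo luminescence (intracellular ATP, 20 min room temperature) after 40 hr compound exposure at 37 °C of 1000 glomerulus-derived human kidney mesenchymal cells/well; AC50 values obtained by fitting qHTS concentration-response data to the Hill equation.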

[9] = molecular target: 3',5'-cyclic-AMP phosphodiesterase 4B (Homo sapiens) (UniProt Q07343); assay: qHTS Assay for Inhibitors of PDE-IV (AID 607; active = well fitted activation curve with a large enough effect in the main read-out, with a control signal flat, not every such curve was filed as active; also: % of control where 0% means no effect); conditions: HEK293 ACTOne CNG channel cells, membrane potential fluorescence; at 22.9 µM (top of the series)
In short: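 HEK293 ACTOne cells with CNG channel (1000/well), endogenous PDE4; membrane potential dye, compounds up to 22.9 uM final. Fluorescence Ex 535/Em 590; RO 20-1724 (100 uM final) as reference.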

[10] = Cellular Toxicity (caspase-3) HepG2 (AID 654); conditions: HepG2 caspase-3 activation, luminescence, 0% = DMSO only, 100% = tamoxifen; at 92.2 µM (top of the series);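 also: cells exposed to compound for 16 hours before reading; 0% = DMSO alone and 100% = caspase signal from 100 µM tamoxifen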
In short: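 Caspase 3/7 activation in HepG2 is measured as rising luminescence after a 16 hr treatment at 37 °C. Values are scaled between DMSO basal and 100 uM tamoxifen, and AC50 is fitted with the Hill equation.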

[11] = Cellular Toxicity (caspase-3) Jurkat (AID 655); conditions: Jurkat caspase-3 activation, luminescence, DMSO = 0%, tamoxifen = 100%; at 92.2 µM (top of the series);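 also: cells exposed to compound for 16 h at 37 °C before reading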
In short: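 Caspase 3/7 activation is scored as increased luminescence in Jurkat cells cultured with compound for 16 hours in complete medium. AC50 values come from Hill fits of qHTS concentration-response data normalized to DMSO and 100 uM tamoxifen controls.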

[12] = Cellular Toxicity (caspase-3) HUV-EC-C (AID 656); conditions: HUV-EC-C cells, caspase-3 activation (apoptosis), vehicle = 0, 100 µM tamoxifen = 100%; at 92.2 µM (top of the series)
In short: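 Read-out: luminescence proportional to caspase 3/7 activity, measured 20 min after adding Caspase-Glo 3/7 reagent. Cells (HUV-EC-C) had received compound for 16 hr at 37°C. Increases relative to DMSO and 100 uM tamoxifen gave concentration-response AC50 values.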

[13] = Cellular Toxicity (caspase-3) SHSY5Y (AID 657); conditions: SH-SY5Y caspase-3 activation, DMSO zero, 10 µM staurosporine = 100%; at 91.7 µM (top of the series)
In short: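 Cells plated and incubated 5 h at 37 °C, dosed over a concentration range, incubated 16 h, then given Caspase-Glo 3/7 reagent for 1 h at room temperature before luminescence reading. Staurosporine (10 uM) defined full stimulation.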

[14] = Cellular Toxicity (caspase-3) BJ (AID 658); conditions: BJ fibroblasts, luminescence, normalized: DMSO 0%, staurosporine 100%; at 91.7 µM (top of the series)
In short: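 Caspase-Glo 3/7 luminescence, read 1 hr after reagent at room temperature, in normal BJ fibroblasts exposed 16 hours at 37 °C. AC50 values from Hill-equation concentration-response, scaled between DMSO basal and 10 uM staurosporine as 100%.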

[15] = Cellular Toxicity (caspase-3) MRC-5 (AID 659); conditions: MRC-5 cells, luminescence, normalized: DMSO 0%, 10 µM staurosporine 100%; at 91.7 µM (top of the series)
In short: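 Luminescent Caspase-Glo 3/7 read-out (1 h, room temperature) after a 16 h, 37 °C compound exposure of MRC-5 lung fibroblasts at 1500 cells/well. Concentration-response AC50 from Hill equation; 0% DMSO, 100% 10 uM staurosporine.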

[16] = Cellular Toxicity (caspase-3) Mesangial (AID 660); conditions: mesangial cells, normalized: DMSO 0%, 100 µM tamoxifen 100%; at 91.7 µM (top of the series);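 also: cells exposed to compound for 16 h before the caspase read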
In short: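 Seed cells derived from normal human renal glomeruli, incubate 5 h, add compounds across concentrations and incubate 16 h at 37 °C. Caspase 3/7 activation is then quantified by luciferase light, with AC50 derived by Hill modeling.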

[17] = Cellular Toxicity (caspase-3) SK-N-SH (AID 661); conditions: SK-N-SH caspase-3 activation, qHTS, DMSO as zero, staurosporine as full; at 91.7 µM (top of the series)
In short: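 Cells were seeded and incubated 5 hr at 37 °C, dosed with compound over a concentration range for 16 hr, then given Caspase-Glo 3/7 reagent for 1 hr at room temperature before luminescence reading.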

[18] = Cellular Toxicity (caspase-3) H-4-II-E (AID 663); conditions: H-4-II-E rat hepatoma, scaled: DMSO 0%, 100 µM tamoxifen 100%; at 92.2 µM (top of the series);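 also: cells exposed to compound for 16 hr before readout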
In short: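 Caspase 3/7 activation measured by luminescent aminoluciferin substrate cleavage after 16 hr compound treatment of H-4-II-E cells in complete medium. Increase normalized between DMSO (basal) and 100 uM tamoxifen (100%); Hill-equation AC50 from concentration-response.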

[19] = Cellular Toxicity (caspase-3) N2a (AID 665); conditions: N2a cells, luminescence, normalized: DMSO 0%, 10 µM staurosporine 100%; at 92.2 µM (top of the series);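 also: compound exposure lasted 16 h at 37 °C before readout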
In short: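 Caspase-3/7 activation, measured as increased luminescence from aminoluciferin release, is quantified in mouse N2a cells exposed to compounds for 16 h. Values are normalized to DMSO and 10 uM staurosporine, with AC50 derived by Hill modelling.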

[20] = Cellular Toxicity (caspase-3) NIH 3T3 (AID 666); conditions: NIH 3T3 caspase-3 activation, apoptosis/toxicity, 0% DMSO, 100% is 100 µM tamoxifen; at 92.2 µM (top of the series);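 also: 0% = DMSO basal and 100% = 100 µM tamoxifen stimulation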
In short: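 Cells were plated at 1000 per well and incubated 5 hr at 37°C, then compound was added for 16 hr. Caspase-Glo 3/7 reagent followed for 20 min at room temperature before luminescence was read.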

[21] = Cellular Toxicity (caspase-3) Renal Proximal Tubule (AID 667); conditions: renal proximal tubule cells, primary cells freshly taken from rat, solvent-only wells 0%, staurosporine 100%; at 91.7 µM (top of the series);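 also: cells exposed to compound for 16 hours at 37 °C before detection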
In short: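 In qHTS format, rat primary proximal tubule cells seeded at 1000 per well are exposed to compounds for 16 hours at 37 °C. An increase in Caspase-Glo 3/7 luminescence indicates caspase activation.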

[22] = Cell Viability - LYMP2-001 (AID 921); conditions: LYMP2-001 lymphoblastoid cell viability; at 92.2 µM (top of the series);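 also: cells exposed to compound for 24 h at 37 °C; 0% = DMSO only and full inhibition = tetraoctylammonium bromide control wells; nearly all actives have a fitted effect of over 70% in size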
[23] = MultiTox-Fluor Cytotoxicity Assay - LYMP1-001 - Dead Cells (AID 946); conditions: LYMP1-001 lymphoblastoid cells, dead-cell protease fluorescence; at 92.2 µM (top of the series);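 also: 0% = DMSO and 100% = tetraoctylammonium bromide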
In short: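 LYMP1-001 lymphoblastoid cells (2500/well) treated 16 h at 37 C. Dead-cell protease cleavage of bis-AAF-R110 read at Ex/Em 485/520. Normalized to DMSO and 15 uM tetraoctylammonium bromide; AC50 from Hill fits.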

[24] = MultiTox-Fluor Cytotoxicity Assay - LYMP1-001 - Live Cells (AID 947); conditions: LYMP1-001 lymphoblastoid cells, live-cell protease fluorescence viability; at 92.2 µM (top of the series);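 also: 0% = DMSO only and full inhibition = tetraoctylammonium bromide control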
[25] = Cell Viability - LYMP1-002 - Assay at 16 hr (AID 948); conditions: LYMP1-002 lymphoblastoid cell viability; at 92.2 µM (top of the series);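 also: 0% = DMSO alone and full effect = 92 µM tetraoctylammonium bromide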
In short: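 Acute cytotoxicity is scored as a concentration-dependent fall in intracellular ATP in a human lymphoblastoid line (LYMP1-002) after 16 hr compound exposure at 37 C, measured by luciferase luminescence.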

[26] = MultiTox-Fluor Cytotoxicity Assay - LYMP1-002 - Dead Cells (AID 960); conditions: LYMP1-002 lymphoblastoid cells, dead-cell protease fluorescence; at 46.1 µM (top of the series);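 also: 0% = DMSO and 100% = tetraoctylammonium bromide; nearly all actives have a fitted effect of over 60% in size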
In short: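 Cells were plated, rested 5 hr, then treated with compound dilution series for 16 hr at 37 C. After adding substrate reagent and 60 min at room temperature, dead-cell protease fluorescence gave concentration-response curves fitted by the Hill equation.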

[27] = MultiTox-Fluor Cytotoxicity Assay - LYMP1-003 - Dead Cells (AID 961); conditions: LYMP1-003 lymphoblastoid cells, dead-cell protease fluorescence; at 92.2 µM (top of the series);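 also: 0% = DMSO and 100% = tetraoctylammonium bromide; nearly all actives have a fitted effect of over 70% in size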
In short: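 LYMP1-003 human lymphoblastoid cells (2500/well) exposed to compound 16 h at 37 C in complete medium; dead-cell protease read with bis-AAF-R110 fluorescence (Ex/Em 485/520) after 60 min at room temperature. Normalized to DMSO and 15 uM tetraoctylammonium bromide; AC50 from Hill fit.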

[28] = MultiTox-Fluor Cytotoxicity Assay - LYMP1-003 - Live Cells (AID 962); conditions: LYMP1-003 lymphoblastoid cells, MultiTox-Fluor live-cell protease fluorescence; at 92.2 µM (top of the series);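 also: 0% = DMSO only and full loss = 92 µM tetraoctylammonium bromide; cytotoxic hits lower the live-cell protease signal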
In short: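 Acute cytotoxicity is scored as a drop in live-cell protease activity in human lymphoblastoid LYMP1-003 cells after 16 hr compound exposure at 37 C. AC50 values come from Hill-equation modelling of concentration-response data.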

[29] = Cell Viability - LYMP1-003 - Assay at 24 hr (AID 963); conditions: LYMP1-003 lymphoblastoid cell viability; at 92.2 µM (top of the series);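 also: plate controls were DMSO only for no effect and tetraoctylammonium bromide positive control for full effect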
In short: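 Cytotoxicity is scored as a concentration-dependent fall in ATP-linked luciferase signal in human lymphoblastoid LYMP1-003 cells treated 24 hr at 37 C in complete culture medium.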

[30] = Cell Viability - LYMP1-003 - Assay at 40 hr (AID 964); conditions: LYMP1-003 lymphoblastoid viability; at 92.2 µM (top of the series); also: % is scaled to controls: 0 for no effect and ±100 for the full control effect; nearly all actives have a fitted effect of over 60% in size
In short: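 Luminescent ATP signal (CellTiter-Glo) served as the viability read-out after 40 hr compound treatment of human lymphoblastoid LYMP1-003 cells at 37 C. Decreases in ATP were fitted with the Hill equation to give AC50.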

[31] = Cell Viability - LYMP2-003 (AID 965); conditions: LYMP2-003 lymphoblastoid cell viability; at 92.2 µM (top of the series);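 also: cells exposed to compounds for 24 h before reading; 0% = DMSO only and full effect = 92 µM tetraoctylammonium bromide; nearly all actives have a fitted effect of over 50% in size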
In short: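 Acute cytotoxicity is scored as a concentration-dependent drop in intracellular ATP, measured by luciferase luminescence in human lymphoblastoid cells treated for 24 hours at 37 C. AC50 values derive from Hill-equation modelling.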

NC(=O)Nc1ccc([As](=O)(O)O)cc1
inactive: activity change, negative = inhibition [1] -3.62% [at 17.2 µM] | activity change, negative = cytotoxicity [2] 5.17% | activity change, negative = cytotoxicity [3] 5.19% | Potency [4] | Potency [5] | Potency [6] | activity change, negative = cytotoxicity [7] 2.37% | activity change, negative = cytotoxicity [8] 12.1% | activation (PDE inhibition) [9] 5.6% | caspase-3 activation [10] 0.173% | caspase-3 activation [11] 0.514% | caspase-3 activation [12] 0.66% | caspase-3 activation [13] 1.4% | caspase-3 activation [14] 0.351% | caspase-3 activation [15] 1.14% | caspase-3 activation [16] 0.367% | caspase-3 activation [17] -1.08% | caspase-3 activation [18] -0.0086% | caspase-3 activation [19] -1.42% | caspase-3 activation [20] -2.28% | caspase-3 activation [21] -4.33% | activity change, negative = cytotoxic [22] -10.6% | cytotoxicity (dead cells) [23] -10.1% | activity change, negative = cytotoxicity [24] 6.38% | activity change, negative = cytotoxicity [25] -5.25% | cytotoxicity (dead cells) [26] 7.94% | cytotoxicity (dead cells) [27] -5.14% | activity change, negative = fewer live cells [28] -4.68% | viability change, negative = cytotoxic [29] 0.46% | activity change, negative = cytotoxic [30] -5.81% | activity change, negative = cytotoxicity [31] 11.2%
